Experimental data published in article PMC3923779, “Iron Acquisition in Bacillus cereus: The Roles of IlsA and Bacillibactin in Exogenous Ferritin Iron Mobilization” (PLoS Pathogens, 2014).

Target: T1, IlsA (Iron-regulated leucine rich surface protein type A), recombinant, without signal peptide (Bacillus cereus strain ATCC14579, UniProt Q81G77 29-760)
T1 construct: IlsA of Bacillus cereus strain ATCC14579, NCBI gene number Bc1331; Holo form (hemin added until saturation of 80%) in the ITC; also called Holo-IlsA; full-length IlsA; source: E. coli C600 ΔhemA, purified (Bulk GST Purification Module, eluted with PreScission Protease); produced in apo-form, hemin added to reconstitute the holo-protein
T1 sequence (looked up): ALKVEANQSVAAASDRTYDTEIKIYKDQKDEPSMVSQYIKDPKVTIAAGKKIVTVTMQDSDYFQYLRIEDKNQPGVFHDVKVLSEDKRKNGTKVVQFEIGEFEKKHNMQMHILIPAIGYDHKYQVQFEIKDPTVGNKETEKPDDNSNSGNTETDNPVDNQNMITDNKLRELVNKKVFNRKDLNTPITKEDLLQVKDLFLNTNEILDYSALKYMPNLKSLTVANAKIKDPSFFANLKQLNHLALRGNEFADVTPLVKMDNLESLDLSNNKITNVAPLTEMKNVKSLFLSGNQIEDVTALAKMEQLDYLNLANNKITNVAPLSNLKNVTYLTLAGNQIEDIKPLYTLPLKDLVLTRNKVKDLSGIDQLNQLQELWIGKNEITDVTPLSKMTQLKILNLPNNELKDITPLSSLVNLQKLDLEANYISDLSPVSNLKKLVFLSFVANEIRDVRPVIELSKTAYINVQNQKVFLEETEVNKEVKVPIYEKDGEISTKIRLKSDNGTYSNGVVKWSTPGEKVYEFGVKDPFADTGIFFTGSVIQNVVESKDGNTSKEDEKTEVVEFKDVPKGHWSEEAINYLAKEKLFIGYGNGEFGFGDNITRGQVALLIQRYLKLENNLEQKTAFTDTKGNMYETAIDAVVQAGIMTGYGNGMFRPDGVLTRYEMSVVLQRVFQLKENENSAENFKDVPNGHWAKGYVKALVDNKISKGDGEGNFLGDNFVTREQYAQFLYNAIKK
Assay: ITC; 16 injections of 3 µl of 229 µM holo-IlsA into the cell with 1 µM ferritin; 25°C; 50 mM Tris-HCl pH 7, 150 mM NaCl, 1 mM EDTA, 1 mM DTT; model of one set of independent binding sites; apparent values
Conditions: both partners purified

B1: recombinant human L-chain ferritin (natural protein, UniProt P02792 1-175, looked up)
chain: MSSQIRQNYSTDVEAAVNSLVNLYLQASYTYLSLGFYFDRDDVALEGVSHFFRELAEEKREGYERLLKMQNQRGGRALFQDIKKPAEDEWGKTPDAMKAAMALEKKLNQALLDLHALGSARTDPHLCDFLETHFLDEEVKLIKKMGDHLTNLHRLGGPEAGLGEYLFERLTLKHD
notes: human ferritin L-chain, recombinant homopolymer of 24 L-subunits; also called HuLF; recombinant human homopolymer L-chain; copies: 24
Ka: 836000 M⁻¹
